The source of these data is publication PMC4082411.

In the assay the target is Chk1 (Homo sapiens, UniProt O14757). Put plainly: DiscoveRx KINOMEscan MAX binding panel ([…] wild-type kinases), duplicate single point at […].

With `CN(C)CC(C)(C)COc1ccc2[nH]c(-c3cc(NC(=O)c4cnn(Cc5ccccc5)c4)c[nH]c3=O)cc2c1`, the “%” value is 99 – 100%.
